Data published in ChEMBL document CHEMBL4038325, “Opioid Receptor Modulators with a Cinnamyl Group” (J Med Chem, 2017).

The chains behind the UniProt entries cited, without tags or fusion partners.
UniProt P35372, whole entry, looked up: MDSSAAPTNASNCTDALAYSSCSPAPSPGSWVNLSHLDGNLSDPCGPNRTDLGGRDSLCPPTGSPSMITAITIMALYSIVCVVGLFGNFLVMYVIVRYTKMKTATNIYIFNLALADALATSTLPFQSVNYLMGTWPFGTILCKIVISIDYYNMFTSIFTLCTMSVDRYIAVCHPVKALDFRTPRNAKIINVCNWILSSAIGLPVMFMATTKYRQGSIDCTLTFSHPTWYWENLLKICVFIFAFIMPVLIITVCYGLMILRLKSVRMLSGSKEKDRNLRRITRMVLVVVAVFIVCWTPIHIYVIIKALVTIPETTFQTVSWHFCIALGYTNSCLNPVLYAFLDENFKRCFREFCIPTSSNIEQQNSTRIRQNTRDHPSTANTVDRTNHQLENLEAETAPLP

Biological target: Mu-type opioid receptor (Homo sapiens, UniProt P35372)
Details: hek-293t

## CC1CN(C/C(=C\c2ccccc2)C(=O)NCC(=O)O)CCC1(C)c1cccc(O)c1 (configuration not stated)
  IC50: 1.26 µM
  pIC50: 5.89
